{"sequences": {"note": "Protein sequences, listed by entry. Tags and fused reporters are not part of them. Residues count along the entry.", "UniProt Q8BK63, 2-337 limits assumed": "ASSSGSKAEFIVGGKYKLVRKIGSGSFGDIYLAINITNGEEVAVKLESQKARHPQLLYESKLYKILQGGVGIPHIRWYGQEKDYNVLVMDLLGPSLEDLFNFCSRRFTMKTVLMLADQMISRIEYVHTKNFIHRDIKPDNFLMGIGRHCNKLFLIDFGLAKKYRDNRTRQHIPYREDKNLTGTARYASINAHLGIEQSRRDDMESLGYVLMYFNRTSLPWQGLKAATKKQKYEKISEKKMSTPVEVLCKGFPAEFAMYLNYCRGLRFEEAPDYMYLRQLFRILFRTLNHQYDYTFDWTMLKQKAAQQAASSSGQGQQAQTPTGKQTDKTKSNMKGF"}, "source": "patent US20160282354A1", "about": "“COMPOSITIONS AND METHODS FOR SELECTING A TREATMENT FOR B-CELL NEOPLASIAS” (THE BROAD INSTITUTE, INC., priority 2013, published 2016)", "molecular_target": "T1, CSNK1A1 (Mus musculus, UniProt Q8BK63)", "T1 construct": "endogenous in cells; host or cells: Ba/F3; primary murine MLL-AF9 AML cells", "type": "cell-based, murine", "conditions": "lenalidomide 24 hours in vitro", "procedure": "CSNK1A1 protein levels were assessed by immunoblot. […] Non-conserved amino acids are indicated by red bars.", "note": "“Also recorded” adds a separate entry of the source."}
{"smiles": "Nc1cccc2c1CN(C1CCC(=O)NC1=O)C2=O", "note": "(centres unmarked) [lenalidomide]", "values": [{"measurement": "CSNK1A1 protein levels in murine Baf3 cells", "result": "No change; also recorded: did not decrease Csnk1a1 protein levels"}, {"measurement": "CSNK1A1 protein levels in primary MLL-AF9 transformed mouse cells", "result": "No change; also recorded: did not decrease Csnk1a1 protein levels"}]}
